The chains behind the UniProt entries cited, without tags or fusion partners.
UniProt Q8TCT1, whole entry: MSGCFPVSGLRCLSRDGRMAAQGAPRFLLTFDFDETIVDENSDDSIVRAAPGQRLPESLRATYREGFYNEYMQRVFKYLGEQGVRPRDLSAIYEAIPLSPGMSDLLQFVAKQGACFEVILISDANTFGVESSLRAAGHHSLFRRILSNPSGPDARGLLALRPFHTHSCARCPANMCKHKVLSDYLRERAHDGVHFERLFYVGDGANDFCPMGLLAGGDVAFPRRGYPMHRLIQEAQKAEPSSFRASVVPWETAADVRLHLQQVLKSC

This is a selection; strong and weak results do not stand in their true shares. Some structures show a salt or complex split into parts, the way the source records it. The source made the active and inactive calls. No stated cut-off is given here; in the data, active means inhibition above about 60%; inactive means the rest.
What follows are molecules tested against Phosphoethanolamine/phosphocholine phosphatase (Homo sapiens) (UniProt Q8TCT1) (assay: PubChem AID 1565). Details: recombinant PHOSPHO1, absorbance phosphatase assay; at 13.3 µM; active compounds read high.
For `CCN(CC)CCCOC(=O)C(O)(c1ccccc1)c1ccccc1`, the inhibition was inactive: 12.3%.
For `Cc1cccc(C)c1OP(C)(N)=O` (stereo not given), the inhibition was inactive: 19.5%.
`CC(C)(C)c1ccc(OP(C)(=O)Nc2ccc(SC(F)(F)F)cc2)cc1` (stereo not given) was tested, and the inhibition was inactive: -11.9%.
`O=[N+]([O-])c1ccc2c(c1)C=Nc1ccccc1O2` was tested, and the inhibition was inactive: -13.4%.
With `CCOC(=O)c1ccc(NP(C)(=O)Oc2ccccc2)cc1` (stereo not given) the inhibition was inactive: 0.3%.
`Cc1ccc(NP(C)(=O)Oc2ccccc2)c(C)c1` (stereo not given) was tested, and the inhibition was inactive: -34.4%.
For `COc1ccccc1OP(C)(=O)Nc1ccc(C)cc1` (stereo not given), the inhibition was inactive: -1.6%.
In the case of `COc1ccc(OP(C)(=O)Nc2cccc(F)c2)cc1` (stereo not given), the inhibition is reported as inactive: 11.6%.
In the case of `COc1ccccc1OP(C)(=O)Nc1cc(Cl)ccc1C` (stereo not given), the inhibition is reported as inactive: 15.8%.
For `Cc1cc(C)cc(OP(C)(N)=O)c1` (stereo not given), the inhibition was inactive: 16.3%.
In the case of `CP(=S)(Nn1cnnc1)Oc1ccccc1` (stereo not given), the inhibition is reported as inactive: -6.7%.
For `COc1ccccc1OP(C)(=O)Nc1ccccc1` (stereo not given), the inhibition was inactive: -2.7%.
For `CP(=O)(Nc1ccccc1Br)Oc1ccccc1` (stereo not given), the inhibition was inactive: -2%.
For `CP(=O)(Oc1ccccc1)OC(c1ccccc1)C(F)(F)F` (stereo not given), the inhibition was inactive: 8.1%.
In the case of `CP(=O)(Nc1ccc(SC(F)(F)F)cc1)Oc1ccc(Cl)cc1` (stereo not given), the inhibition is reported as inactive: -1.5%.
For `Cc1cccc(C)c1OP(C)(=O)Nc1ccc(SC(F)(F)F)cc1` (stereo not given), the inhibition was inactive: 0.8%.
For `Cc1cc(C)cc(OP(C)(=O)Nc2ccc(SC(F)(F)F)cc2)c1` (stereo not given), the inhibition was inactive: -14.5%.
`CP(=O)(NC(=O)Nc1ccccc1)Oc1ccccc1` (stereo not given) was tested, and the inhibition was inactive: -8.1%.
With `CCc1ccc(OP(C)(=O)N2CCN(c3ccc([N+](=O)[O-])cc3)CC2)cc1` (stereo not given) the inhibition was inactive: 36.8%.
In the case of `CCOP(C)(=S)SCC(=O)NC(C)C(=O)O` (stereo not given), the inhibition is reported as inactive: 14.5%.
For `CCOC(=O)c1ccc(NP(C)(=O)Oc2ccc(OC)cc2)cc1` (stereo not given), the inhibition was inactive: 1.1%.
With `CP(=O)(Nc1ccccn1)Oc1ccc(Cl)cc1` (stereo not given) the inhibition was inactive: -21.8%.
For `O=[N+]([O-])c1cc([N+](=O)[O-])c(-n2nnc3ccccc32)c([N+](=O)[O-])c1`, the inhibition was inactive: 47.6%.
In the case of `Cc1nc2ccc3ccccc3c2s1.O=[N+]([O-])c1cc([N+](=O)[O-])c(O)c([N+](=O)[O-])c1`, the inhibition is reported as inactive: 6.7%.
With `CCOC(=O)C(CC)C1=NC(C)(C)Cc2ccccc21.O=[N+]([O-])c1cc([N+](=O)[O-])c(O)c([N+](=O)[O-])c1` (stereo not given) the inhibition was inactive: 38.6%.
For `O=[N+]([O-])c1cc([N+](=O)[O-])c(Nc2nnnn2CCO)c([N+](=O)[O-])c1`, the inhibition was inactive: 14.9%.
In the case of `CN1CCCCC1COC(=O)C1(O)c2ccccc2CCc2ccccc21` (stereo not given), the inhibition is reported as inactive: 1.9%.
In the case of `COc1ccccc1OP(C)(=O)Nc1c(C)cccc1C` (stereo not given), the inhibition is reported as inactive: 37.9%.
`CCCOc1ccc(NP(C)(=O)Oc2ccc(Cl)cc2)cc1` (stereo not given) was tested, and the inhibition was inactive: 16.8%.
`CP(=O)(Nc1ccc(SC(F)(F)F)cc1)Oc1ccccc1` (stereo not given) was tested, and the inhibition was inactive: 7.2%.
In the case of `O=C(O)c1cccc(Nc2c([N+](=O)[O-])cc([N+](=O)[O-])cc2[N+](=O)[O-])c1`, the inhibition is reported as inactive: 29.8%.
For `CC1=NCCc2c1[nH]c1ccccc21.O=[N+]([O-])c1cc([N+](=O)[O-])c(O)c([N+](=O)[O-])c1`, the inhibition was inactive: -30.7%.
In the case of `COc1ccccc1OP(C)(=O)Nc1cccc(Br)c1` (stereo not given), the inhibition is reported as inactive: 11.1%.
In the case of `Cc1cc(C)cc(OP(C)(=O)Nc2ccc(C)cc2C)c1` (stereo not given), the inhibition is reported as inactive: 11.6%.
In the case of `CCOC(=O)c1ccc(NP(C)(=O)Oc2cc(C)cc(C)c2)cc1` (stereo not given), the inhibition is reported as inactive: -4%.
In the case of `Cc1cc(C)cc(OP(C)(=O)Nc2ccccn2)c1` (stereo not given), the inhibition is reported as inactive: -1.2%.
For `CP(=O)(Nc1cccc(Br)c1)Oc1ccccc1` (stereo not given), the inhibition was inactive: 3.2%.
For `Cc1ccc(C)c(NP(C)(=O)Oc2ccccc2)c1` (stereo not given), the inhibition was inactive: -1.4%.
For `CC(C)c1ccc(OP(C)(=O)Nc2ccc(SC(F)(F)F)cc2)cc1` (stereo not given), the inhibition was inactive: -7.8%.
In the case of `CP(=O)(Nc1ccccc1F)Oc1ccccc1` (stereo not given), the inhibition is reported as inactive: 8.6%.
With `O=C(OCCN1CCN(CCOCc2ccccc2)CC1)C(O)(c1ccccc1)c1ccccc1` the inhibition was inactive: -22.6%.
With `O=C(OC1CN2CCC1CC2)c1ccc([N+](=O)[O-])cc1` (stereo not given) the inhibition was inactive: 28.5%.
`COc1ccc2c(c1O)-c1c(O)c(OC)cc3c1[C@H](C2)[N+](C)(C)CC3.O=[N+]([O-])c1cc([N+](=O)[O-])c([O-])c([N+](=O)[O-])c1[O-]` was tested, and the inhibition was inactive: 26.5%.
In the case of `COc1ccc(OP(C)(=O)Nc2ccc(SC(F)(F)F)cc2)cc1` (stereo not given), the inhibition is reported as inactive: 0.3%.
In the case of `CCOC(=O)c1ccc(NP(C)(=O)Oc2ccc(F)cc2)cc1` (stereo not given), the inhibition is reported as inactive: 13.4%.
For `CCN(CC)CCCOC(=O)C(O)(c1ccccc1)C1CCCCC1` (stereo not given), the inhibition was inactive: 0.5%.
In the case of `O=[N+]([O-])c1cc([N+](=O)[O-])c(OC2CCCCC2O)c([N+](=O)[O-])c1` (stereo not given), the inhibition is reported as inactive: 34%.
For `CCCCCOc1ccc(NP(C)(=O)Oc2ccc(Cl)cc2Cl)cc1` (stereo not given), the inhibition was inactive: 23.9%.
With `CP(=O)(Nc1ccccc1)Oc1ccc(F)cc1` (stereo not given) the inhibition was inactive: 36.9%.
In the case of `COc1ccc(OP(C)(=O)Nc2cccc(Br)c2)cc1` (stereo not given), the inhibition is reported as inactive: 11.1%.
`COc1ccc(NP(C)(=O)Oc2ccccc2OC)cc1` (stereo not given) was tested, and the inhibition was inactive: -12.7%.
In the case of `CN(C)CCOC(=O)C(O)(c1ccccc1)C1CCCCC1` (stereo not given), the inhibition is reported as inactive: 21.5%.
`Cc1cc(-c2cccc3ccccc23)c(C)cn1.O=[N+]([O-])c1cc([N+](=O)[O-])c(O)c([N+](=O)[O-])c1` was tested, and the inhibition was inactive: 1.5%.
With `O=[N+]([O-])c1cc([N+](=O)[O-])c(NCC2CCS(=O)(=O)C2)c([N+](=O)[O-])c1` (stereo not given) the inhibition was inactive: 4.2%.
With `O=[N+]([O-])c1ccc(OP2(=O)COCCO2)cc1` (stereo not given) the inhibition was inactive: 37.4%.
`CP(=O)(Nc1ccc(SC(F)(F)F)cc1)Oc1ccc(F)cc1` (stereo not given) was tested, and the inhibition was inactive: 23.9%.
For `CCOP(C)(=S)SCC(=O)NC(C)(CC)C(=O)O` (stereo not given), the inhibition was inactive: 25.5%.
With `CP(=O)(Nc1ccc2c(c1)OCCO2)Oc1ccccc1` (stereo not given) the inhibition was inactive: 1.5%.
For `Cc1ccccc1NP(C)(=O)Nc1ccccc1C`, the inhibition was inactive: 41.6%.
`COc1ccc(OP(C)(=O)Nc2ccc(Br)cc2)cc1` (stereo not given) was tested, and the inhibition was inactive: 5.6%.
In the case of `CCN(CC)CC(O)COC(=O)C(O)(c1ccccc1)C1CCCCC1` (stereo not given), the inhibition is reported as inactive: 4.9%.
In the case of `CCc1ccc(OP(C)(=O)Nc2cccnc2)cc1` (stereo not given), the inhibition is reported as inactive: 47.7%.
For `CP(=O)(Oc1ccccc1)N1CCOC1=O` (stereo not given), the inhibition was inactive: 2.8%.
In the case of `O=C(OCCCN1CCCC1)C(O)(c1ccccc1)C1CCCCC1` (stereo not given), the inhibition is reported as inactive: -12.5%.
With `COc1ccccc1OP(C)(=O)Nc1c(C)n(C)n(-c2ccccc2)c1=O` (stereo not given) the inhibition was inactive: -6.5%.
`CP(=O)(Nc1ccc(Cl)cc1)Oc1ccc(F)cc1` (stereo not given) was tested, and the inhibition was inactive: 24.4%.
With `COc1ccccc1OP(C)(=O)Nc1ccccc1Br` (stereo not given) the inhibition was inactive: -6.8%.
In the case of `CC(C)(C)c1ccc(OP(C)(=O)O)cc1`, the inhibition is reported as inactive: 15%.
For `CN(C)C(=O)c1c([N+](=O)[O-])cc([N+](=O)[O-])cc1[N+](=O)[O-]`, the inhibition was inactive: 4.4%.
`CP(=O)(OC12CC3CC(CC(C3)C1)C2)OC12CC3CC(CC(C3)C1)C2` was tested, and the inhibition was inactive: -11.1%.
With `CCOC(=O)c1ccc(NP(C)(=O)Oc2ccc(Cl)cc2)cc1` (stereo not given) the inhibition was inactive: 3.1%.
In the case of `Cc1cc(C)cc(OP(C)(=O)Nc2cccc(C(F)(F)F)c2)c1` (stereo not given), the inhibition is reported as inactive: 44.9%.
For `COc1ccc(OP(C)(=O)Nc2ccccc2Br)cc1` (stereo not given), the inhibition was inactive: 3.5%.
For `COc1ccccc1OP(C)(=O)Nc1ccc(C)c(C)c1` (stereo not given), the inhibition was inactive: -2.2%.
With `Cc1nc2ccc3ccccc3c2o1.O=[N+]([O-])c1cc([N+](=O)[O-])c(O)c([N+](=O)[O-])c1` the inhibition was inactive: 33.6%.
For `CP(=O)(Nc1ccc(Cl)cc1Cl)Oc1ccccc1` (stereo not given), the inhibition was inactive: -106%.
`CP(=O)(OCCOc1ccccc1)OCCOc1ccccc1` was tested, and the inhibition was inactive: 16.6%.
`COc1ccccc1OP(C)(=O)Nc1ccc(Br)cc1` (stereo not given) was tested, and the inhibition was inactive: -1.4%.
With `CN(C)CCOC(=O)C(O)(c1ccccc1)C1CCCC1` (stereo not given) the inhibition was inactive: 12.4%.
With `COc1ccc(OP(C)(=O)Nc2ccccn2)cc1` (stereo not given) the inhibition was inactive: -8.6%.
In the case of `Cc1c(NP(C)(=O)Oc2ccc(C(C)C)cc2)c(=O)n(-c2ccccc2)n1C` (stereo not given), the inhibition is reported as inactive: 50.1%.
In the case of `O=[N+]([O-])c1cc([N+](=O)[O-])c(Nc2ccccn2)c([N+](=O)[O-])c1`, the inhibition is reported as inactive: 32.8%.
With `CCc1ccc(OP(C)(=O)O)cc1` the inhibition was inactive: 48.5%.
`COc1ccccc1OP(C)(=O)Nc1ccc(C)cc1C` (stereo not given) was tested, and the inhibition was inactive: 26.7%.
`CP(=O)(Nc1ccccn1)Oc1ccccc1` (stereo not given) was tested, and the inhibition was inactive: -17.8%.

Source: PubChem BioAssay AID1565 (Sanford-Burnham Center for Chemical Genomics, 2009)
